Values of other authors, collected in patent US20250262305A1 (Aegis Therapeutics, LLC, priority 2018, published 2025).

Details: Mean ± SD, cited from earlier work

Question: Which results are given for CNC[C@H](O)c1ccc(O)c(O)c1 [Epinephrine, (R)-4-(1-Hydroxy-2-(methylamino)ethyl)benzene-1,2-diol]?
Answer: AUC0-120 min (Intramuscular (IM) 0.3 mg): 18.3 ± 9.3 ng·min/mL; Cmax (Intranasal (IN) 5 mg): 0.386 ± 0.152 ng/mL
